Test results as given in patent US9517252B2, “p53 activating peptides” (Agency for Science, Technology and Research, priority 2011, dated 2016).

Experiments:
[1] = test system: H1299 cells expressing G245S, R273H or R248Q mutant p53; experiment: Stabilization of p53 targets (western blot); format: cell-based, human; conditions: Tat-conjugated peptides, 5, 20 or 50 uM
P53G245S-FL or -Δ22 = experiment: qPCR p53-DNA binding plate assay, antibody capture (Cosmo IVT); format: biochemical, human; conditions: translated with 1, 10 or 100 μM peptide
Np53 R273H-Δ22 = target: T1, Np53 R273H-Δ22 (Homo sapiens, UniProt P04637, R273H); experiment: qPCR Nano tagged p53-DNA binding assay (Novagen IVT); format: biochemical; conditions: 200 μM peptide
T1 construct: made in house; host or cells: cell-free Novagen EcoPro bacterial lysate IVT, used unpurified

p53-R273H-FL = p53-R273H-FL (Homo sapiens, UniProt P04637, R273H); experiment: ELISA peptide-mutant p53 interaction (p53 IVT-translated with biotinylated peptide); format: binding
[2] = 25 μM peptide, Bp53-10.1 antibody
[3] = p53 mutant R273H (Pap-TAL: R273H/G245S)

Row | Substance | stabilization of p53 protein targets [1] | sequence-specific DNA binding to p21 3′ site and PUMA-BS2 REs (P53G245S-FL or -Δ22) | RE-binding, PUMA-BS2 RE only (Np53 R273H-Δ22) | fold binding over 200 μM 'peptide-only' control (p53-R273H-FL; [2]) [fold] | fold binding over 'no-p53' control (p53-R273H-FL; [2]) [fold] | background peptide binding in absence of p53 (peptide only control), interaction with DO-1 antibody (p53-R273H-FL; 200 μM peptide, DO-1) | Binding preference for peptide terminal (level) (p53-R273H-FL; [3]) | Lowest effective concentration (p53-R273H-FL; [3]) [µM] | Maximum fold binding (p53-R273H-FL; [3]) [fold]
1 | S P T T N H [Pap-SPT] | weakly active | little to no sequence-specific DNA binding | – | – | – | – | – | – | –
2 | M P H L M A C [Pap-MPH] | – | little to no sequence-specific DNA binding | – | – | – | – | – | – | –
3 | VRHQHVGATILGWK [Pap-VRH] | – | – | appreciable increase in RE-binding | 10 | ~18 | high levels of background peptide binding | No | 25 | 18
